According to US12491252B2, “Substituted 3-amino-5-phenylbenzamide compounds as covalent inhibitors of enhancer zeste homolog 2 (EZH2) and proteolysis-targeting chimeric derivatives thereof (PROTACs) that induce degradation of EZH2” (Northwestern University, priority 2021, dated 2025):

Experiments:
EZH2 [1] = assay: Western blot of EZH2 in SU-DHL4 cells; type: cell-based; conditions: FIG. 33, 48 hours
EZH2 [2] = assay: Western blot of EZH2 in SU-DHL6 cells; type: cell-based; conditions: FIG. 33, 48 hours

CCN(c1cc(-c2ccc(CN3CCOCC3)cc2)cc(C(=O)NCc2c(C)cc(C)[nH]c2=O)c1C)C1CCOCC1 [EPZ-6438, reference compound] was tested, and the “Degradation of EZH2” value (EZH2 [1]) was “little or no effect” and the “Degradation of EZH2” value (EZH2 [2]) was “little or no effect”.
